Target: T1, topoisomerase Iα (Homo sapiens, UniProt P11387)
T1 construct: purchased
T1 sequence (P11387 1-765): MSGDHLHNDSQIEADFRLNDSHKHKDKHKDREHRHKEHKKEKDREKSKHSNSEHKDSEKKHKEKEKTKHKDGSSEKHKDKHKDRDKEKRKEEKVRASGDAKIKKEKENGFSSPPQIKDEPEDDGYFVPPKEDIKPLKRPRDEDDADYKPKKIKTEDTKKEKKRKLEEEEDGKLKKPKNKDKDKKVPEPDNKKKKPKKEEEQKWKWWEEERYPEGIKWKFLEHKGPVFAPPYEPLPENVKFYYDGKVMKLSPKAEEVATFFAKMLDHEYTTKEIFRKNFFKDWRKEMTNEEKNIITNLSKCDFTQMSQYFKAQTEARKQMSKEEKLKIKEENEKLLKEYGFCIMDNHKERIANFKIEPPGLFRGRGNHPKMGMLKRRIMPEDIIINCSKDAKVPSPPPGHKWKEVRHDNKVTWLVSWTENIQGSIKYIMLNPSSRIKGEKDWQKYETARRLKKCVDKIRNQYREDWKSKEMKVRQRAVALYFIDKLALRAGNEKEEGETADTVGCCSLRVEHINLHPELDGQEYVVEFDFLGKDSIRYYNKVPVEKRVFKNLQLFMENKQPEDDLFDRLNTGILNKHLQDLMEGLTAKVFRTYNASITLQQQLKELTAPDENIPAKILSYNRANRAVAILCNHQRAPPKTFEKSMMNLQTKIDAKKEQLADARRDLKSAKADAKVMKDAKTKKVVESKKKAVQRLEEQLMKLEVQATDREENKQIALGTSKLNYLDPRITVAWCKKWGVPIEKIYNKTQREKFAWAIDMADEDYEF
Test: Topoisomerase I inhibition, human DNA topoisomerase Elisa kit
Assay type: biochemical
Settings: Topoisomerase I IC50 µM ± SEM
Description: Two folds of serial dilution was accomplished after standards and the tested compounds were dissolved in sample diluent. Horseradish peroxidase (HRP-avidin) and biotin-conjugated antibody were diluted 10 times each. Each well received 100 µL of each concentration of the standard or test chemicals, which were then added and incubated at 37 °C for 60 min. […] The microtiter plate was rinsed three times and given room to aspirate. After that, the plate was incubated at 37 °C for 60 min with 100 µL of HRP-avidin solution added to each well. After that, the plate was aspirated and cleaned 5 times. Each well received 90 µL of TMB substrate, and the plate was incubated for 30 min. at 37 °C in a light-protected environment. Finally, stop solution (50 µL) was loaded, and within 5 min, the absorbance at 450 nm was measured spectrophotometrically.
Topoisomerase enzyme assay
Topoisomerase I and II inhibitory activity […]
topoisomerase IIβ inhibitory activity utilizing the human DNA topoisomerase Elisa kit.
Standards and the tested compound were dissolved in sample diluent and 2 folds serial dilution was achieved. Biotin-conjugated antibody and avidin conjugated Horseradish Peroxidase (HRP-avidin) were diluted to 10 folds. 100 μL of each concentration of standard or test compound were added to each well. Incubate at 37 °C for 1 h. […] The absorbance was measured spectrophotometrically within 5 min at 450 nm .

COc1cccc2c1C(=O)c1c(O)c3c(c(O)c1C2=O)C[C@@](O)(C(=O)CO)C[C@@H]3O[C@H]1C[C@H](N)[C@H](O)[C@H](C)O1 [Doxorubicin, reference compound]
IC50: 3.36 ± 0.18 µM

— publication PMC11480511 (Scientific Reports, 2024)
